Experimental data as given in patent publication US6355460B1 (Axys Pharmaceuticals, Inc., priority 1995, dated 2002).

Target: T1, thrombin (Homo sapiens, UniProt P00734)
T1 construct: β-lactamase, plasmin, thrombin, trypsin, tryptase and urokinase
Test: In vitro enzyme inhibitor assay, thrombin
Assay type: biochemical
Details: ambient zinc, no EDTA, read-out: Inhibition, (Ki, μM ± S.D.) [Zn]ambient

N=C(N)c1ccc2nc(-c3ccccn3)[nH]c2c1 [Compound 10, 5-amidino-2-pyrid-2-ylbenzimidazole]
Ki: 81.5 µM
